# miR-21 reporter: miR-21 reporter, rising signal | HeLa miR-21 FLuc reporter, luciferase, 48 h | Potency, µM (top dose mostly 38.3 µM), inactives show at the highest dose reporter change, positive = more light | 340,000 tested, under 10 active | AID 2288; active = well fitted rising curve with a large enough effect; inconclusive = small, poorly fitted or top-dose-only effect; inactive = no such curve, though single readings can be large or run the other way;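 note: % of control where 0% means no effect; miR-21 action dims this reporter so a rising signal means less miR-21 action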
#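 HeLa cells stably expressing CMV-driven firefly luciferase with a downstream miR-21 binding sequence, endogenously expressing miR-21, were treated with titrations (up to about 40uM final) for 48 hours at 37 degree Celsius. Luciferase luminescence was read after lysis.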
# BRCA1 expr up: activators of BRCA1 expression | Potency, µM (highest dose often 46.1 µM), for inactives: at the highest dose activation, usual class: activators | 380,000 tested, 1.1% active | MCF7-BRCA1-FFLuc reporter, luminescence, 48 h; response scale: scaled: vehicle 0%, 10 µM genistein 100% | AID 624202; also: potency is read from the fitted curve at half-maximal effect; nearly all actives have a fitted effect of over 80% in size
#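 Quantitative HTS in MCF7 cells stably reporting BRCA1 expression via firefly luciferase. Compound treatment lasts 48 h at 37 °C in phenol-red free MEM. Activation is expressed relative to genistein at 10 microM and DMSO.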
# Apoferritin bind: candidate novel general anesthetic via apoferritin binding | AID 485281 | Potency, µM (top dose mostly 77.5 µM), for the others: at the top dose activity change, negative = displacement, hits mostly inhibitors | apoferritin/1-aminoanthracene competitive binding, fluorescence | 350,000 tested, 0.074% active; also: potency is read from the fitted curve at half-maximal effect; % is scaled to controls: 0 for no effect and ±100 for the full control effect; nearly all actives have a fitted effect of over 20% in size
#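 Steps: apoferritin (10 uM) was premixed with half-saturated 1-AMA in PBS, compounds were pin-transferred, plates stood 10 min at room temperature, fluorescence was read at 380/535 nm, and curves were fitted with a Hill equation.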
# p53 reactivation: restores transcriptional activity of mutant p53. 320,000 tested, 0.063% active. H1299 p53-A138V BP100-luciferase reporter, luminescence, 24 h. AID 504706. Potency, µM (titrated, usually from 92.2 µM), without a hit: at the highest dose activity change, positive = activation, hits mostly activators; also: potency is read from the fitted curve at half-maximal effect; % of control where 0% means no effect; nearly all actives have a fitted effect of over 45% in size
#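 H1299 (p53-null), stable ts p53-A138V + BP100-Luc; 1000 cells/well, Opti-MEM/10% FBS; cpd 4 pt, 1:5; 24 h, 37 deg C, 5% CO2; detection reagent 10 min RT; luminescence.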
# Starred values were filed as active, the others as inactive; ? = inconclusive; . = no result. Most compounds without a hit are left out; they make up all but 1.1% or so of the library. Unless noted, calls follow the shape of the dose curve; as a rule, active = well fitted curve in the direction sought with a large enough effect; inconclusive = small, poorly fitted or top-dose-only effect, or another doubt; inactive = no such curve, though single readings can be large; an effect the other way counts as inactive or inconclusive.
# Short keys – A = miR-21 reporter; B = BRCA1 expr up; C = Apoferritin bind; D = p53 reactivation
N/C(=N\OC(=O)c1ccncc1)c1cccc([N+](=O)[O-])c1
  A = -35% | B = 7.9µM* | C = -4% | D = -9%
COc1cccc(C(=O)O/N=C(\N)c2ccc(C)cc2)c1
  A = -51% | B = 60% | C = -5% | D = ?
Cc1ccc(C(=O)O/N=C(\N)c2cccnc2)cc1[N+](=O)[O-]
  A = -71% | B = 11µM* | C = -6% | D = ?
COc1cccc(C(=O)O/N=C(\N)c2ccncc2)c1
  A = -43% | B = 10µM* | C = -11% | D = 2%
Cc1c(C2(c3cc(C(C)C)c(O)c(Br)c3C)OS(=O)(=O)c3ccccc32)cc(C(C)C)c(O)c1Br
  A = . | B = 5% | C = . | D = .
Cc1ccc(C(=O)O/N=C(\N)c2cccc([N+](=O)[O-])c2)cc1
  A = -48% | B = 3.2µM* | C = -13% | D = ?
COc1ccc(-c2cc(-c3ccc(F)cc3)nc3c2COc2ccc(F)cc2-3)cc1
  A = -3% | B = -1% | C = 1% | D = .
O=C(/C=C/c1cccs1)Nc1cccnc1
  A = -52% | B = 11µM* | C = -5% | D = ?
Cn1cc(S(=O)(=O)N2CCCC2)cc1C(=O)O
  A = . | B = 4% | C = . | D = 8%
COc1cccc2cc(CC(=O)c3cc(C)ccc3C)c(=O)oc12
  A = -35% | B = 98% | C = -3% | D = 12%
COc1cccc2cc(CC(=O)c3ccc(C)c(C)c3)c(=O)oc12
  A = -12% | B = 11µM* | C = -12% | D = 2%
COc1cccc2cc(CC(=O)c3ccccc3)c(=O)oc12
  A = -31% | B = 10µM* | C = -7% | D = 12%
CCc1ccc(C(=O)Cc2cc3cccc(OC)c3oc2=O)cc1
  A = -35% | B = 11µM* | C = 3% | D = 13%
CSc1ccc(CCNC(=O)c2ccc(-c3nc(COc4ccccc4)c(C)o3)cc2)cc1
  A = -1% | B = . | C = -5% | D = .
O=C1CN(C(=O)COc2ccc([N+](=O)[O-])cc2Cl)c2ccccc2N1
  A = . | B = 11µM* | C = . | D = -1%
O=C1CN(C(=O)COc2ccc(Cl)cc2Cl)c2ccccc2N1
  A = -28% | B = 23% | C = 1% | D = -2%
COc1cc(C=O)ccc1OCCCOc1ccccc1[N+](=O)[O-]
  A = -48% | B = 7.1µM* | C = -10% | D = ?
COc1cc(C=O)ccc1OCCCCOc1ccccc1[N+](=O)[O-]
  A = -17% | B = 21% | C = -11% | D = -3%
O=[N+]([O-])c1ccc(-c2ccc(/C=N/O)o2)cc1
  A = -29% | B = 8.9µM* | C = -14% | D = 13%
CCCOc1ccc(CNC(=O)Cc2cccs2)cc1
  A = -43% | B = 7.9µM* | C = -4% | D = ?
O=C(CSc1ncccn1)NCc1cccc(Cl)c1
  A = -49% | B = 11µM* | C = -13% | D = 6%
O=C(Cc1cccs1)NCc1cccc(Cl)c1
  A = -51% | B = 13µM* | C = -11% | D = 17%
O=C(Cc1cccs1)NCc1cccc(CNC(=O)Cc2cccs2)c1
  A = 0% | B = 13% | C = -2% | D = 0%
O=C(Cc1cccs1)NCc1ccccc1Br
  A = -42% | B = 2.2µM* | C = -1% | D = 15%
O=c1[nH]cc(C=NNc2ccccc2)c(=O)[nH]1
  A = . | B = 0% | C = . | D = .

# No new results follow: entries from further up.
# Short keys – A = miR-21 reporter; B = BRCA1 expr up; C = Apoferritin bind; D = p53 reactivation
N/C(=N\OC(=O)c1ccncc1)c1cccc([N+](=O)[O-])c1
  A = -35% | B = 7.9µM* | C = -4% | D = -9%
COc1cccc(C(=O)O/N=C(\N)c2ccc(C)cc2)c1
  A = -51% | B = 60% | C = -5% | D = ?

# The list goes on:
# Short keys – A = miR-21 reporter; B = BRCA1 expr up; C = Apoferritin bind; D = p53 reactivation
COCCN(C(=O)c1ccc(-c2ccc([N+](=O)[O-])cc2)o1)c1c(N)n(CC(C)C)c(=O)[nH]c1=O
  A = . | B = -9% | C = . | D = -4%
CC12CCCC(CC(=O)O)(C1)NC(=O)C2 (stereo unspecified)
  A = . | B = -2% | C = . | D = .
O=C(Cc1cccs1)NCc1cc(Cl)cc(Cl)c1
  A = -61% | B = ? | C = 7% | D = 17%
O=C(Cc1cccs1)NCc1ccc(Cl)cc1Cl
  A = -46% | B = 4µM* | C = -21% | D = .
CCN1CCN(c2nc3c(S(=O)(=O)c4ccc(C)cc4)nnn3c3ccsc23)CC1
  A = -15% | B = . | C = -8% | D = .
Cc1ccc(C)c(OCCC(=O)OCC(=O)NNC(=O)c2ccccc2)c1
  A = . | B = 10% | C = . | D = 1%
N#Cc1c(N2CCOCC2)nsc1-c1ccc(C(F)(F)F)cc1
  A = -63% | B = 5µM* | C = 0% | D = 3%
Cn1nnnc1SCc1ccc(C(=O)Nc2ccc(Br)cc2)cc1
  A = -16% | B = 10µM* | C = -2% | D = 12%
COc1ccccc1N1CCN(C(=O)c2oc3ccccc3c2N)CC1
  A = 3% | B = . | C = -5% | D = .
Nc1nn(-c2cccc(F)n2)cc1-c1ccc(Cl)cc1
  A = -28% | B = ? | C = 0% | D = ?
COc1ccc(-c2ccn(-c3cccc(F)n3)n2)cc1
  A = -7% | B = 3.2µM* | C = -21% | D = ?
COc1ccc(Cl)cc1NC(=O)CN(C)C(=O)CCNC(=O)c1ccccc1OC
  A = . | B = 31% | C = . | D = -8%
Cc1ccc2nc(NCc3ccccc3)c(C=NCc3ccccc3)c(=O)n2c1
  A = -31% | B = 13µM* | C = -13% | D = 15%
Cc1cccn2c(=O)c(C=NCc3ccccc3)c(NCCO)nc12
  A = -5% | B = 13% | C = -10% | D = -2%
Cn1cc(Cl)c(C(=O)OCC(=O)Nc2nc(-c3ccc(Br)cc3)cs2)n1
  A = -30% | B = 11µM* | C = -5% | D = 17%
Cn1nccc1C(=O)OCC(=O)Nc1nc(-c2ccccc2)cs1
  A = -37% | B = 66% | C = -24% | D = ?
COc1ccccc1C(C)NC(=O)CN(C)CC(=O)Nc1c(C)cccc1C (stereo unspecified)
  A = . | B = 1% | C = . | D = -5%
COc1ccc(C(=O)Nc2cnc3ccccn3c2=O)cc1
  A = -33% | B = 4.5µM* | C = -8% | D = 2%
COc1ccc(C(=O)Nc2ccccc2C(N)=O)cc1
  A = -50% | B = 6.3µM* | C = -9% | D = ?
Cc1cccc(OCC(=O)Nc2sc3c(c2C#N)CCC3)c1
  A = -59% | B = 10µM* | C = -10% | D = 9%
O=C(Nc1ccccc1)Nc1ccc(Cl)nc1Cl
  A = . | B = 3% | C = . | D = .
O=[N+]([O-])c1cccnc1NCCNc1ncc(C(F)(F)F)cc1Cl
  A = -66% | B = 2.5µM* | C = ? | D = 27%
O=[N+]([O-])c1ccccc1NCCNc1ncc(C(F)(F)F)cc1Cl
  A = -32% | B = 66% | C = -22% | D = 30%
Cc1ncc([N+](=O)[O-])n1CC(=O)Nc1ccc(Br)cc1
  A = 1% | B = -9% | C = -2% | D = 1%
O=c1cccccc1NN=C1CCCCC1
  A = -71% | B = 14% | C = -12% | D = ?

# Reprinted from the part before: 2 compounds; new compounds follow.
# Short keys – A = miR-21 reporter; B = BRCA1 expr up; C = Apoferritin bind; D = p53 reactivation
Cc1ncc([N+](=O)[O-])n1CC(=O)Nc1ccc(Br)cc1
  A = 1% | B = -9% | C = -2% | D = 1%
O=c1cccccc1NN=C1CCCCC1
  A = -71% | B = 14% | C = -12% | D = ?
O=c1cccccc1NN=C1CCCCCC1
  A = -71% | B = 10µM* | C = -22% | D = ?
COCc1ccc(C(=O)N(C)CC2CCCN(CCc3ccc(OC)cc3)C2)o1 (stereo unspecified)
  A = -63% | B = 13µM* | C = -11% | D = ?
CCOc1ccc2c(c1)sc(=NC(=O)C1CC1)n2C
  A = -47% | B = 2.8µM* | C = -6% | D = .
Cn1c(=NC(=O)C2CCCCC2)sc2cc([N+](=O)[O-])ccc21
  A = -9% | B = 18% | C = -5% | D = 1%
Cc1ccccc1Cn1nnc(-c2ccc3c(c2)OCO3)n1
  A = -70% | B = ? | C = -1% | D = ?
Fc1cccc(Cl)c1Cn1nnc(-c2ccc3c(c2)OCO3)n1
  A = -59% | B = 8.9µM* | C = -5% | D = ?
CCc1ccc(NC(=O)NC2CCCCCCC2)cc1
  A = -41% | B = ? | C = -1% | D = ?
CCc1ccc(NC(=O)C(=S)NC2CCCCC2)cc1
  A = -27% | B = 2µM* | C = -3% | D = 20%
COc1cccc(/C(C)=N/N=C(\C)c2cccc(OC)c2)c1
  A = -61% | B = 3.2µM* | C = ? | D = .
COc1cccc(C(N)=O)c1
  A = . | B = 5% | C = . | D = .
Cc1ccc(NC(=O)c2ccccn2)c(Br)c1
  A = -53% | B = 3.5µM* | C = -3% | D = ?
O=[N+]([O-])c1nn(-c2ccc3c(c2)OCCO3)n(O)c1=NCCC1=CCCCC1
  A = -52% | B = 4.5µM* | C = ? | D = 26%
O=[N+]([O-])c1cccc(/C=N/Nc2nccnc2Cl)c1
  A = -43% | B = 7.9µM* | C = -20% | D = 13%
